Measurements from ChEMBL document CHEMBL1833948, “Structural determinants of opioid and NOP receptor activity in derivatives of buprenorphine” (2011).

By UniProt entry, the sequences of proteins in these tests, tags left out.
UniProt P41143, whole entry: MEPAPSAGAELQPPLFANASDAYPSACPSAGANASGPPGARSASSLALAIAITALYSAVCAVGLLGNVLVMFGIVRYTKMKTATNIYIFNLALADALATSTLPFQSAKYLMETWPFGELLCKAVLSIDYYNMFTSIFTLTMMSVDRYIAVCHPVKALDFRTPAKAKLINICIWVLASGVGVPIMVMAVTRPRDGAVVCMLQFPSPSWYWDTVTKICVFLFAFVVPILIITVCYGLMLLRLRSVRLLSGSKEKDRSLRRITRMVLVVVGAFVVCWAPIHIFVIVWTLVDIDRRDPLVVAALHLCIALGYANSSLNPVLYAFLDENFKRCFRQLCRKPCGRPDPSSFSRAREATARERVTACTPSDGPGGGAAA
UniProt P41145, whole entry: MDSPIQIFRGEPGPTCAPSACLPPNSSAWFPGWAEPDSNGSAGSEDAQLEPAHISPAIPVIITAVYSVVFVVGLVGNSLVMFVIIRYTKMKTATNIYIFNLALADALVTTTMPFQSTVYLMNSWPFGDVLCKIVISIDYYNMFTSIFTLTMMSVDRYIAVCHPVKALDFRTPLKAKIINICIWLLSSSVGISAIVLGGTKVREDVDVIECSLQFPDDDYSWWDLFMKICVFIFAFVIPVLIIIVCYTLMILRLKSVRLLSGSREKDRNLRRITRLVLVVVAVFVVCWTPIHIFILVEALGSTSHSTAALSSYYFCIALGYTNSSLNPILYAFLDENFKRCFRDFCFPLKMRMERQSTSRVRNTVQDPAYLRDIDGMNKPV
UniProt P41146, whole entry: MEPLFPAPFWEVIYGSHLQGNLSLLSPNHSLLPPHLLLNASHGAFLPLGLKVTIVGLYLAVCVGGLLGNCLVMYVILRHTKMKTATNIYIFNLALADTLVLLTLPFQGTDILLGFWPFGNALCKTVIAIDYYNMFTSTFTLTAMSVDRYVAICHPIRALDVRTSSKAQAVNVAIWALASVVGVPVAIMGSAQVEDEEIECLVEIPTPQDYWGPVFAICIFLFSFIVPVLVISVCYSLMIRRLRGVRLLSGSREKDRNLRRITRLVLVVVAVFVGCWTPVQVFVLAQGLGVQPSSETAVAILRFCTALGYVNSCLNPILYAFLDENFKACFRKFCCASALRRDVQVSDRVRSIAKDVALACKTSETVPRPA
UniProt P35372, whole entry: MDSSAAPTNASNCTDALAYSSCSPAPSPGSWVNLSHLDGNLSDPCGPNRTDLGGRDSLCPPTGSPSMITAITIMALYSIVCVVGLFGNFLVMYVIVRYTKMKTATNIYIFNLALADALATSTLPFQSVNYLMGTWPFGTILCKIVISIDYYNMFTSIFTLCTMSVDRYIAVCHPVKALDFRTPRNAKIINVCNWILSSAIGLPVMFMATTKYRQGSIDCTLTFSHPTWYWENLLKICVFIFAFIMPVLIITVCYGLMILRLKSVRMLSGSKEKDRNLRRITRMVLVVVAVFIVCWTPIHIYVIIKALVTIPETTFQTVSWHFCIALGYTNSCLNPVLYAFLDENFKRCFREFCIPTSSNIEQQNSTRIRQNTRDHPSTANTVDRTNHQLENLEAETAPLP

Assays:
[1] = target: Delta-type opioid receptor (Homo sapiens, UniProt P41143); test: Partial agonist activity at human DOP receptor expressed in CHO cells assessed as stimulation of [35S]GTPgammaS binding after 60 mins by scintillation counting
[2] = target: T1, Kappa-type opioid receptor (Homo sapiens, UniProt P41145); test: Partial agonist activity at human KOP receptor expressed in CHO cells assessed as stimulation of [35S]GTPgammaS binding after 60 mins by scintillation counting
Nociceptin receptor = Nociceptin receptor (Homo sapiens, UniProt P41146); test: Partial agonist activity at human NOP receptor expressed in CHO cells assessed as stimulation of [35S]GTPgammaS binding after 60 mins by scintillation counting
Mu-type opioid receptor = Mu-type opioid receptor (Homo sapiens, UniProt P35372); test: Partial agonist activity at human MOP receptor expressed in CHO cells assessed as stimulation of [35S]GTPgammaS binding after 60 mins by scintillation counting
[3] = target: T1, Kappa-type opioid receptor; test: Displacement of [3H]U69593 from human KOP receptor expressed in CHO cells after 60 mins by scintillation counting
Mus musculus [4] = test: Antinociceptive activity in sc dosed CD1 mouse by tail flick assay; settings: strain CD1, Tail
Mus musculus [5] = test: Antinociceptive activity in sc dosed CD1 mouse assessed as inhibition of PPQ-induced writhing by tail flick assay; settings: strain CD1, Tail
Mus musculus [6] = test: Antinociceptive activity in CD1 mouse at 30 mg/kg, sc by tail flick assay; settings: route subcutaneous, strain CD1, Tail

CO[C@]12CC[C@@]3(C[C@@H]1[C@](C)(O)CC(C)(C)c1ccccc1)[C@H]1Cc4ccc(O)c5c4[C@@]3(CCN1CC1CC1)[C@H]2O5
EC50 [1]: 3.41 µM | EC50 [2]: 0.00088 µM | EC50 (Nociceptin receptor): 2.38 µM

CCC(C)(C)[C@](C)(O)[C@H]1C[C@@]23CC[C@]1(OC)[C@@H]1Oc4c(O)ccc5c4[C@@]12CCN(CC1CC1)[C@@H]3C5
EC50 (Mu-type opioid receptor): 0.006 µM | EC50 (Nociceptin receptor): 0.0786 µM | Ki [3]: 0.00563 µM

CO[C@]12CC[C@@]3(C[C@@H]1[C@](C)(O)CC(C)(C)C)[C@H]1Cc4ccc(O)c5c4[C@@]3(CCN1CC1CC1)[C@H]2O5
EC50 [1]: 0.0501 µM | EC50 (Mu-type opioid receptor): 0.0026 µM

CO[C@]12CC[C@@]3(C[C@@H]1[C@](C)(O)CC1CC4CCC1C4)[C@H]1Cc4ccc(O)c5c4[C@@]3(CCN1CC1CC1)[C@H]2O5 (stereo not given in full)
EC50 [1]: 0.0493 µM | EC50 (Mu-type opioid receptor): 0.0061 µM | EC50 [2]: 0.00533 µM | EC50 (Nociceptin receptor): 0.111 µM

CO[C@]12CC[C@@]3(C[C@@H]1[C@@](C)(O)C(C)(C)C)[C@H]1Cc4c(Cl)cc(O)c5c4[C@@]3(CCN1CC1CC1)[C@H]2O5
A50 (Mus musculus [4]): 4.7 mg/kg | ED50 (Mus musculus [5]): 0.016 mg/kg | Activity (Mus musculus [6]): 15%
